Results as given in patent publication US12528818B2, “Compositions and methods for inhibition of RAS” (Leidos Biomedical Research, Inc., priority 2021, dated 2026).

Key:
[1] = target: GppNHp-loaded KRAS4b (amino acids 1-169) G12C/C118S protein (Homo sapiens, UniProt P01116, C118S/G12C); assay: Covalent cysteine 12 modification by MALDI-TOF MS, GppNHp-loaded KRAS G12C; type: biochemical; settings: 15 minutes reaction time
[2] = target: Avi-KRAS G12C (1-169) GppNHp/RAF1 RBD-3xFLAG (52-151) (Homo sapiens, UniProt P01116, G12C); assay: biochemical; settings: Raf1-GppNHp-KRAS G12C disruption, Raf1 RBD-KRAS G12C-GppNHp disruption assay IC50
[3] = target: GDP-loaded KRAS4b (amino acids 1-169) G12C/C118S protein (Homo sapiens, UniProt P01116, C118S/G12C); assay: Covalent cysteine 12 modification by MALDI-TOF MS, GDP-loaded KRAS G12C; type: biochemical; settings: 15 minutes reaction time
[4] = compound 95 or later using 1 μM proteins
[5] = compounds 94 or before using 5 μM proteins

C=CC(=O)N1C[C@H](C)N(c2nc(OC[C@@]34CCCN3C[C@@H](F)C4)nc3c(F)c(-c4ccc(F)c5sc(N)nc45)c(C(F)(F)F)cc23)C[C@H]1C [Compound 219]
GppNHp-KRAS G12C percent of modification [1, 4]: C (10%≤percent of modification <50%)
pIC50 [2]: > 6.30
GDP-KRAS G12C percent of modification [3, 4]: A (percent of modification ≥70%)

CN1CCC[C@H]1COc1nc(NC2CCN(C#N)C2)c2cc(Cl)c(-c3ccc(F)c4sc(N)nc34)c(F)c2n1 (stereo partly drawn) [Compound 51]
GppNHp-KRAS G12C percent of modification [1, 5]: B (50≤percent of modification <70%)
pIC50 [2]: > 6.30
GDP-KRAS G12C percent of modification [3, 5]: B (50≤percent of modification <70%)

C=CC(=O)N1CC(Nc2ncnc3c(F)c(-c4ccc(F)c5sc(N)nc45)c(C(F)(F)F)cc23)C1 [Compound 86]
GppNHp-KRAS G12C percent of modification [1, 5]: C (10%≤percent of modification <50%)
pIC50 [2]: 5.30 to 6.30
GDP-KRAS G12C percent of modification [3, 5]: A (percent of modification ≥70%)

C=CC(=O)N1CC2CN(c3nc(OC[C@@H]4CCCN4C)nc4c(F)c(-c5ccc(F)c6sc(N)nc56)c(Cl)cc34)CC2C1 (stereo partly drawn) [Compound 32]
GppNHp-KRAS G12C percent of modification [1, 5]: D (percent of modification <10%)
pIC50 [2]: < 4.70
GDP-KRAS G12C percent of modification [3, 5]: A (percent of modification ≥70%)

C=CC(=O)N1CC[C@@H](N(C)c2nc(OCC34CCCN3CCC4)nc3c(F)c(-c4c(O)cccc4F)c(C(F)(F)F)cc23)C1 [Compound 227]
GppNHp-KRAS G12C percent of modification [1, 4]: C (10%≤percent of modification <50%)
pIC50 [2]: 5.30 to 6.30
GDP-KRAS G12C percent of modification [3, 4]: A (percent of modification ≥70%)

C=CC(=O)N1CCN(c2nc(OCC34CCCN3CC(C)(C)C4)nc3c(F)c(-c4ccc(F)c5sc(N)nc45)c(C(F)(F)F)cc23)CC1 (stereo not drawn) [Compound 171, 1-(4-(7-(2-amino-7-fluorobenzo[d]thiazol-4-yl)-2-((2,2-dimethyltetrahydro-1H-pyrrolizin-7a(5H)-yl)methoxy)-8-fluoro-6-(trifluoromethyl)quinazolin-4-yl)piperazin-1-yl)prop-2-en-1-one]
GppNHp-KRAS G12C percent of modification [1, 4]: C (10%≤percent of modification <50%)
pIC50 [2]: 5.30 to 6.30
GDP-KRAS G12C percent of modification [3, 4]: A (percent of modification ≥70%)

C=CC(=O)N1CC(Nc2nc(OCC34CCCN3CCC4)nc3c(F)c(-c4ccc(F)c5sc(N)nc45)c(CC#N)cc23)C1 [Compound 91, 2-(4-((1-acryloylazetidin-3-yl)amino)-7-(2-amino-7-fluorobenzo[d]thiazol-4-yl)-8-fluoro-2-((tetrahydro-1H-pyrrolizin-7a(5H)-yl)methoxy)quinazolin-6-yl)acetonitrile]
GppNHp-KRAS G12C percent of modification [1, 5]: A (percent of modification ≥70%)
pIC50 [2]: > 6.30
GDP-KRAS G12C percent of modification [3, 5]: A (percent of modification ≥70%)

N#CN1CC(Nc2ncnc3c(F)c(-c4ccc(F)c5sc(N)nc45)c(C(F)(F)F)cc23)C1 [Compound 45]
GppNHp-KRAS G12C percent of modification [1, 5]: A (percent of modification ≥70%)
pIC50 [2]: > 6.30
GDP-KRAS G12C percent of modification [3, 5]: A (percent of modification ≥70%)

C=CC(=O)N1CCCC(Nc2nc(OC[C@@H]3CCCN3C)nc3c(F)c(-c4ccc(F)c5sc(N)nc45)c(Cl)cc23)C1 (stereo partly drawn) [Compound 54]
GppNHp-KRAS G12C percent of modification [1, 5]: C (10%≤percent of modification <50%)
pIC50 [2]: 5.30 to 6.30
GDP-KRAS G12C percent of modification [3, 5]: B (50≤percent of modification <70%)

C=CC(=O)N1CCN(c2nc(OC[C@@H]3CCCN3C)nc3c(F)c(-c4ccc(F)c5sc(N)nc45)c(Cl)cc23)[C@@H](C)C1 [Compound 39]
GppNHp-KRAS G12C percent of modification [1, 5]: C (10%≤percent of modification <50%)
pIC50 [2]: 5.30 to 6.30
GDP-KRAS G12C percent of modification [3, 5]: A (percent of modification ≥70%)

C=CC(=O)N1C2CC1CN(c1nc(OCC34CCCN3CCC4)nc3c(F)c(-c4ccc(F)c5sc(N)nc45)c(Cl)cc13)C2 [Compound 161]
GppNHp-KRAS G12C percent of modification [1, 4]: D (percent of modification <10%)
pIC50 [2]: 4.70 to 5.30
GDP-KRAS G12C percent of modification [3, 4]: A (percent of modification ≥70%)

C=CC(=O)NCCNc1nc(OC[C@@H]2CCCN2C)nc2c(F)c(-c3ccc(F)c4sc(N)nc34)c(Cl)cc12 [Compound 37]
GppNHp-KRAS G12C percent of modification [1, 5]: C (10%≤percent of modification <50%)
pIC50 [2]: 5.30 to 6.30
GDP-KRAS G12C percent of modification [3, 5]: A (percent of modification ≥70%)

C=CC(=O)N1CC(Nc2nc(OC[C@@H]3C[C@@H](OC)CN3C)nc3c(F)c(-c4ccc(F)c5sc(N)nc45)c(C(F)(F)F)cc23)C1 [Compound 76]
GppNHp-KRAS G12C percent of modification [1, 5]: A (percent of modification ≥70%)
pIC50 [2]: > 6.30
GDP-KRAS G12C percent of modification [3, 5]: A (percent of modification ≥70%)

C=CC(=O)N1CCN(c2nc(OC[C@@]34CCCN3C[C@@H](F)C4)nc3c(F)c(-c4ccc(F)c5sc(N)nc45)c(C(F)(F)F)cc23)[C@H](C)C1 [Compound 217]
GppNHp-KRAS G12C percent of modification [1, 4]: D (percent of modification <10%)
pIC50 [2]: 5.30 to 6.30
GDP-KRAS G12C percent of modification [3, 4]: B (50≤percent of modification <70%)

C=CC(=O)N1CC[C@@H](Nc2nc(OC[C@@]34CCCN3C[C@H](F)C4)nc3c(F)c(-c4ccc(F)c5sc(N)nc45)c(C(F)(F)F)cc23)C1 (single isomer, unassigned) [Compound 272]
GppNHp-KRAS G12C percent of modification [1, 4]: D (percent of modification <10%)
pIC50 [2]: 5.30 to 6.30
GDP-KRAS G12C percent of modification [3, 4]: D (percent of modification <10%)

C=CC(=O)N1CCN(c2nc(OCC3CCCN3C)nc3c(F)c(-c4ccc(F)c5sc(N)nc45)c(C4(C#N)CCC4)cc23)CC1 (stereo not drawn) [Compound 183]
GppNHp-KRAS G12C percent of modification [1, 4]: D (percent of modification <10%)
pIC50 [2]: 4.70 to 5.30
GDP-KRAS G12C percent of modification [3, 4]: C (10%≤percent of modification <50%)

C=CC(=O)N1CCN(c2nc(OC[C@@H]3CCCN3C)nc3c(F)c(-c4ccc(F)c5sc(N)nc45)c(C4CCC4)cc23)CC1 [Compound 142]
GppNHp-KRAS G12C percent of modification [1, 4]: D (percent of modification <10%)
pIC50 [2]: < 4.70
GDP-KRAS G12C percent of modification [3, 4]: D (percent of modification <10%)

C=CC(=O)N1C[C@H](C)N(c2nc(OCC3(CN4CCOCC4)CC3)nc3c(F)c(-c4ccc(F)c5sc(N)nc45)c(C(F)(F)F)cc23)C[C@H]1C [Compound 285]
GppNHp-KRAS G12C percent of modification [1, 4]: D (percent of modification <10%)
pIC50 [2]: 5.30 to 6.30
GDP-KRAS G12C percent of modification [3, 4]: B (50≤percent of modification <70%)

C=CC(=O)N1CCN(c2nc(OC[C@@H]3CCCN3C)nc3c(F)c(-c4ccc(F)c5sc(N)nc45)c(C(F)(F)F)cc23)CC1 [Compound 71, 1-(4-(7-(2-amino-7-fluorobenzo[d]thiazol-4-yl)-8-fluoro-2-(((S)-1-methylpyrrolidin-2-yl)methoxy)-6-(trifluoromethyl)quinazolin-4-yl)piperazin-1-yl)prop-2-en-1-one]
GppNHp-KRAS G12C percent of modification [1, 5]: C (10%≤percent of modification <50%)
pIC50 [2]: 5.30 to 6.30
GDP-KRAS G12C percent of modification [3, 5]: A (percent of modification ≥70%)

C=CC(=O)N1CC[C@@H](N(C)c2ncnc3c(F)c(-c4ccc(F)c5sc(N)nc45)c(C(F)(F)F)cc23)C1 [Compound 225]
GppNHp-KRAS G12C percent of modification [1, 4]: D (percent of modification <10%)
pIC50 [2]: 4.70 to 5.30
GDP-KRAS G12C percent of modification [3, 4]: A (percent of modification ≥70%)

C#CC(=O)N1CC(Nc2ncnc3c(F)c(-c4ccc(F)c5sc(N)nc45)c(Cl)cc23)C1 [Compound 22, 1-[3-[[7-(2-amino-7-fluoro-1,3-benzothiazol-4-yl)-6-chloro-8-fluoro-quinazolin-4-yl]amino]azetidin-1-yl]prop-2-yn-1-one]
GppNHp-KRAS G12C percent of modification [1, 5]: C (10%≤percent of modification <50%)
pIC50 [2]: 4.70 to 5.30
GDP-KRAS G12C percent of modification [3, 5]: A (percent of modification ≥70%)

C=CC(=O)N1CC(Nc2ncnc3c(F)c(-c4ccc(F)c5sc(N)nc45)c(Cl)cc23)C1 [Compound 4, 1-(3-((7-(2-amino-7-fluorobenzo[d]thiazol-4-yl)-6-chloro-8-fluoroquinazolin-4-yl)amino)azetidin-1-yl)prop-2-en-1-one]
GppNHp-KRAS G12C percent of modification [1, 5]: D (percent of modification <10%)
pIC50 [2]: 4.70 to 5.30
GDP-KRAS G12C percent of modification [3, 5]: A (percent of modification ≥70%)

C=CC(=O)N1CC[C@@H](N(C)c2nc(OCC34CCCN3CCC4)nc3c(F)c(-c4ccc(F)c5sc(N)nc45)c(C(F)(F)F)cc23)C1 (atropisomer, axis not shown) [Compound 222]
GppNHp-KRAS G12C percent of modification [1, 4]: A (percent of modification ≥70%)
pIC50 [2]: > 6.30
GDP-KRAS G12C percent of modification [3, 4]: A (percent of modification ≥70%)

C=CC(=O)N1CCN(c2nc(OC[C@@H]3CCCN3C)nc3c(F)c(-c4ccc(F)c5sc(N)nc45)c(-c4ccccc4)cc23)CC1 [Compound 114]
GppNHp-KRAS G12C percent of modification [1, 4]: D (percent of modification <10%)
pIC50 [2]: < 4.70
GDP-KRAS G12C percent of modification [3, 4]: D (percent of modification <10%)

pIC50: −log10 of the molar value.
